Laboratory results reported in ChEMBL document CHEMBL5385866, “Switch type I to type II TRK inhibitors for combating clinical resistance induced by xDFG mutation for cancer therapy” (Eur J Med Chem, 2023).

Biological target: T1, 1-phosphatidylinositol 4,5-bisphosphate phosphodiesterase delta-1 (Mus musculus) (UniProt Q8R3B1)
T1 sequence (whole entry): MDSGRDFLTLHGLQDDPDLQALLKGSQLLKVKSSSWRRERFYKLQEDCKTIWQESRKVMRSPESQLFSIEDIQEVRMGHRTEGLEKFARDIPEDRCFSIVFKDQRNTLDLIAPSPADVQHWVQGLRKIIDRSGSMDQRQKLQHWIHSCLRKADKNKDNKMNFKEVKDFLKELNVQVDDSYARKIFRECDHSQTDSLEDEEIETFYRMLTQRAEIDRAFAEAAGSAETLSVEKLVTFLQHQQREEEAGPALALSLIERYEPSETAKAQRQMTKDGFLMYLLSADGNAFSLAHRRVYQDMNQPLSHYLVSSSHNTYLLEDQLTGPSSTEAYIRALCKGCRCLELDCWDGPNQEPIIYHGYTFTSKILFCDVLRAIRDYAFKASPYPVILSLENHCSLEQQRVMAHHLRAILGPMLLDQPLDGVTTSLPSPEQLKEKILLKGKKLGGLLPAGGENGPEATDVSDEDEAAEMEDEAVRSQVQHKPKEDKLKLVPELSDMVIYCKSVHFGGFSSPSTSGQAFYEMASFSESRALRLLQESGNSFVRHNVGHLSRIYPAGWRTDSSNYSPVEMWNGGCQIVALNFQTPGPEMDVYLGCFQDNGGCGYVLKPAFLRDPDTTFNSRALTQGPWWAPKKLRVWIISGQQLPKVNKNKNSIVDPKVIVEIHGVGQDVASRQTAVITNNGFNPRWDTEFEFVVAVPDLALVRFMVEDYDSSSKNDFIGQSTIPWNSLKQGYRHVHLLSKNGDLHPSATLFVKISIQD
Settings: BaF3, dose <= 500.0 nM, time 6.0 hrs

- inhibition: Dose-Dependent Effect
SMILES: CN1CCN(Cc2ccc(NC(=O)[C@@H]3CCN(c4ccc5ncc(-c6ccccn6)n5n4)C3)cc2C(F)(F)F)CC1
